The text below walks through data of article PMC5363571 (Oncotarget, 2016).

Amino acid sequences for entries named in this document (tags omitted).
UniProt Q93009, whole entry: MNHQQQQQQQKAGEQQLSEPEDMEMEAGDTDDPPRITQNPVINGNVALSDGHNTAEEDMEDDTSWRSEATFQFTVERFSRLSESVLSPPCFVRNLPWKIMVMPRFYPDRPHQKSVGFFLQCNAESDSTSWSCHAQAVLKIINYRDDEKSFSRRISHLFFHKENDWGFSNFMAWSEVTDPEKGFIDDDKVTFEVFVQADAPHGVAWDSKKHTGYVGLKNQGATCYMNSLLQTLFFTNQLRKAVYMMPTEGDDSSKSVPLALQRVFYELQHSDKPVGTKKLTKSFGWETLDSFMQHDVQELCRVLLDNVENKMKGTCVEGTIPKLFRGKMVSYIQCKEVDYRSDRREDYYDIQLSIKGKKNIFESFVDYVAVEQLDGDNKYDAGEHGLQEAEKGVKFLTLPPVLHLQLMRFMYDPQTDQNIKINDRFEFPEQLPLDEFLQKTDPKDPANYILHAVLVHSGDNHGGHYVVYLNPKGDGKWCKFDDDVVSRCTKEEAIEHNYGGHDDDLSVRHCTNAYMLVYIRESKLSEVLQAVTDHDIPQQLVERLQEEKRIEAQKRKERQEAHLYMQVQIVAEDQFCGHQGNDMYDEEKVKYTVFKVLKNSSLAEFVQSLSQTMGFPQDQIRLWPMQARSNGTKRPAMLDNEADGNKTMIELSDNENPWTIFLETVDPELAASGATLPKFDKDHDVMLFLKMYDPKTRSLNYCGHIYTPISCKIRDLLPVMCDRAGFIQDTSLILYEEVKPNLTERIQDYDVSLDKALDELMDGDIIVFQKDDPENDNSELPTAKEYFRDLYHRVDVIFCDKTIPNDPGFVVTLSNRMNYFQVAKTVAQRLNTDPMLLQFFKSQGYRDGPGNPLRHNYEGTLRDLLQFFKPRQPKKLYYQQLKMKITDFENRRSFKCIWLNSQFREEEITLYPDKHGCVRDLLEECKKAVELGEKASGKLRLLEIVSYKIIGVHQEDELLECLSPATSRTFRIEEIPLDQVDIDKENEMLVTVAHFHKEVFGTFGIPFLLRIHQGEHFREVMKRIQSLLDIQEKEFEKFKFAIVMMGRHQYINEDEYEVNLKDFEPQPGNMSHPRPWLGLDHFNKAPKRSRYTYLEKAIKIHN

For this assay, the target named is USP7 (Homo sapiens, UniProt Q93009). Also on record: Ub-AMC hydrolysis by recombinant USP7 (20 nM), 30 min pre-incubation, fluorescence read-out. The note with it: inhibitor.

Turning to `CC[C@@]1(O)C(=O)OCc2c1cc1n(c2=O)Cc2cc3cc(O)ccc3nc2-1` [10-hydroxycamptothecin], the “% Inhibition at 50 μM” value was less than 5%.

For `O=P1(N(CCCl)CCCl)NCCCO1` (centres unmarked) [Cyclophosphamide monohydrate], the “% Inhibition at 50 μM” value was less than 5%.
